Patent US8877773B2, “Methods for treating chronic obstructive pulmonary disease” (Indiana University Research and Technology Corporation, priority 2009, dated 2014)

Columns and labels:
Assay type in all cases: in vivo, rat
[1] = test system: panic-prone (1-AG treated) rats; assay: Sodium lactate (NaLac) challenge in panic-prone rats: radio-telemetry of locomotor and cardiovascular (HR, MAP) responses
Procedure: Telemetry probes (Data Science International, St. Paul Minn.) were surgically implanted into the abdomen of anaesthetize rats to measure locomotor responses. Cardiovascular responses were measured by a femoral arterial line connected to the telemetric probe which contained a pressure transducer (Data Science International, St. Paul Minn.).
The minipump was then sutured into place subcutaneously at the nape of the neck. The concentration of the solutions was such that 3.5 nmol/[…] per hour of 1-AG or d-AG was infused continuously into the DMH/PeF region for the remainder of the given experiment. […]
(§1) Rats received intravenous (i.v.) infusions (10 ml over 15 min of either 0.5M NaLac or 0.9% isotonic saline (when applicable)) using a syringe pump at least five days following the initiation of 1-AG or d-AG infusions. Once a stable baseline was achieved, i.v. infusions began and cardiovascular and activity data were recorded for 15 min (similar to clinical NaLac infusions).
Cardiovascular responses (i.e., MAP and HR) were measured by a femoral arterial line connected to a telemetric probe which contained a pressure transducer (Cat. no. C50-PXT, Data Science International (DSI) St. Paul Minn.). […] MAP and HR were recorded continuously in freely moving conscious rats and are expressed as a 20 min time course. […]

control rats = assay: Baseline behavior and cardiovascular activity in control rats; details: control rats (no 1-AG or NaLac), 30 mg/kg i.p., 30 min following injection
Procedure: In experiments 4-6, rats were made panic vulnerable with 1-AG. 5 days after 1-AG onset, in a counterbalanced design, rats received intraperitoneal (i.p.) injections of treatment drug or vehicle 30 min prior to i.v. infusions. In experiment 4, rats were injected with the ORX1 receptor antagonist SB334867 (N-(2-Methyl-6-benzoxazolyl)-N′-1,5-naphthyridin-4-yl urea) (30 mg/kg, Tocris, in 0.2 ml/100 g volume DMSO, n=12), alprazolam (3 mg/kg, Sigma, in 0.2 ml/100 g volume DMSO, n=6) or vehicle (0.2 ml/100 g volume DMSO, n=11) 30 min prior to a NaLac challenge and, immediately after, a SI test was used to assess anxiety behavior. In experiment 5, baseline in an open field (OF) behavior test of anxiety was assessed (n=8) prior to 1-AG infusions. […] In experiment 7, control rats (no 1-AG or NaLac treatment) were assessed in a SI test. 48 h later these rats received an i.p. injection of an ORX1 receptor antagonist (30 mg/kg SB334867, Tocris, in 0.2 ml/100 g volume DMSO, n=7) or vehicle (0.2 ml/100 g volume DMSO, n=7) and 30 min post injection cardiovascular activity was monitored for 20 min followed by an immediate SI test.
Adult male Sprague-Dawley rats were anesthetized and surgically implanted with telemetrical probes to measure cardiovascular activity prior to and during lactate infusions. […] Cardiovascular activity and SI tests were monitored 30 min following injection at similar time points.

[2] = test system: panic-prone (1-AG treated) rats; assay: Sodium lactate (NaLac) challenge in panic-prone (1-AG treated) rats: social interaction (SI) test
Text: The minipump was then sutured into place subcutaneously at the nape of the neck. The concentration of the solutions was such that 3.5 nmol/[…] per hour of 1-AG or d-AG was infused continuously into the DMH/PeF region for the remainder of the given experiment. In the case of the siRNA experiments specialized T-cannulae were implanted permitting access to a removable 28 g injector to direct siRNA injections to the same location as the 1-AG infusions. Additionally these rats had guide cannulae directed to the opposite DMH/PeF for bilateral infusion of siRNA.
as §1
Another SI test was performed 5 days following minipump infusions and immediately following saline or sodium lactate infusions.
In experiment 3, an RNAase free environment was maintained throughout the injection procedure and all injectors, syringes and tubing were exposed to RNaseZAP and rinsed thoroughly with RNA-free water prior to siRNA injections. […] Rats with 1-AG minipumps and telemetric probes had siORX or siCON injected bilaterally through guide canulae opposite the 1-AG injector and through the minipump canulae ipislateral to 1-AG infusion. 48 hrs after siORX or siCON treatment, these rats were exposed to saline or NaLac infusions (siCon/Sal n=4, siORX/Sal n=6, siCON/Lac n=5, siORX/Lac n=6) and SI behavioral and cardiovascular responses were recorded, and were then sacrificed by rapid decapitation, following a brief (30 s) exposure to IsoFlurane® 1 hr after the intravenous infusions.
In experiments 4-6, rats were made panic vulnerable with 1-AG. […] In experiment 5, baseline in an open field (OF) behavior test of anxiety was assessed (n=8) prior to 1-AG infusions. […]

c-Fos = c-Fos immunoreactive cell counts in brain regions after FG-7142 challenge; details: FG-7142 7.5 mg/kg ip after vehicle (veh/FG) or SB334867 30 mg/kg ip (SB/FG); 90 min
Procedure: In this experiment, rats were split into 3 drug treatment groups (n=8/group), where the rats each received the following: group 1) a vehicle injection (0.2 ml DMSO in 100 g volume dH2O) followed by another vehicle (0.2 ml DMSO/0.1 ml TWEEN80 in 100 g volume dH2O) with injection; group 2) a vehicle injection followed by an inverse benzodiazepine agonist (FG-7142, 7.5 mg/kg ip, Sigma); or in group 3) an orexin 1 receptor antagonist (SB334867, 30 mg/kg ip, Tocris) followed by FG-7142. Fifteen min after the FG-7142 injection, all rats were tested for anxiety behavior using a 5 min open field test (OFT); 5 min social interaction (SI) test; then a 5 min elevated plus maze (EPM) test. Ninety min following FG-7142 injections, rats were anaesthetized and then the brains were removed and processed for immunohistochemistry as described in detail in subsequent section.
Ninety min following the initiation of treatment, rats were anaesthetised with an overdose of sodium pentobarbital (40 mg, i.p.) then perfused transcardially with 0.05 M phosphate buffered saline (PBS; 250 ml), followed by 0.1 M sodium phosphate buffer (PB; 250 ml) containing 4% paraformaldehyde (PFA) and 3% sucrose. Brains were removed and post-fixed for 24 h in the same fixative, rinsed for 24 h in 0.1 M PB, then placed in cryoprotectant (30% sucrose in 0.1 M PB) for an additional 4-5 days. To maintain a consistent plane for coronal sections, brains were placed in a rat brain matrix (ASI instruments, Model No. RBM-4000C) and cut with a razor blade at the caudal border of the mammillary bodies. Brains were frozen in cooled liquid isopentane made by immersing a plastic vessel containing isopentane into a dewar flask containing liquid nitrogen. Serial coronal sections (30 μm) were cut using a cryostat and were immediately placed in cryoprotectant consisting of 27% ethylene glycol and 16% glycerol in 0.05 M PB to yield six alternate sets of sections. Sections were stored at −20° C. until immunohistochemical processing.
All brain sections were immunostained with the c-Fos primary antibody in a single immunohistochemical run, rather than in batches, with large volume incubations to limit variability in the quality of immunohistochemical staining among brain sections. However, the forebrain was immunostained for c-Fos in one run and the brainstem (i.e., midbrain, pons and medulla) in another. Immunostaining for c-Fos protein was accomplished using an affinity-purified primary antibody directed at c-Fos (rabbit anti-human c-Fos polyclonal affinity-purified antibody, Cat. no. sc-52, Santa Cruz Biotechnology, San Diego, Calif.; diluted 1:10,000). Free-floating sections were washed in 0.1 M PBS for 30 min, then incubated in 1% H2O2 in PBS for 20 min. Sections were then washed 10 min in PBS and 20 min in PBS with 0.3% Triton X-100 (PBST). Sections were then incubated 12-16 h in PBST with primary antibody solution at room temperature. After a 30 min wash in PBST, sections were incubated for 2 hr in biotinylated goat anti-rabbit IgG (Cat no. BA-1000, Vector Laboratories, Burlinghame, Calif.; diluted 1:500). Sections were washed again for 30 min in PBST then incubated 1.5 hr in an avidin-biotin-peroxidase complex provided in a standard Vector Elite kit (Cat no. PK-6100, Vector Laboratories, diluted 1:200). The peroxidase substrate for the chromogen reaction was Vector SG, which was prepared as recommended by the manufacturer (Cat. no. SK-4700, Vector Laboratories). The substrate reaction was run for 20 min for the forebrain. All sections were mounted on clean glass slides, dried overnight, dehydrated and mounted with coverslips using DPX mounting medium (BDH Laboratory Supplies, Poole, UK). All washes and incubations were done at room temperature in 12-well polystyrene plates with low frequency shaking on an orbital shaker. […]

Cc1nc2ccc(NC(=O)Nc3ccnc4cccnc34)cc2o1 [SB334867, N-(2-Methyl-6-benzoxazolyl)-N′-1,5-naphthyridin-4-yl urea]
general locomotor activity after NaLac challenge ([1]; 30 mg/kg i.p., experiment 5 (open field cohort)): No change was detected
NaLac induced increases in general locomotor activity ([1]; i.p. 30 min prior to NaLac, SB334867/SB408124 30 mg/kg, alprazolam 3 mg/kg, experiments 4 and 6): attenuated; also recorded: blocked
SI duration (anxiety) in control rats (control rats): had no effect; also recorded: did not alter
duration of SI (anxiety-like behavior) after lactate challenge, injection into the BNST ([2]; 1-AG treated rats, unilateral 300 pmoles/100 nl into bed nucleus of the stria terminalis 30 min prior to lactate, vs vehicle): restored the duration of SI to normal baseline levels; also recorded: reduced the duration of SI; also recorded: reduced anxiety-like behavior
anxiety-like responses (social interaction (SI) duration) after NaLac challenge ([2]; panic-prone rats, i.p. 30 min prior to NaLac, SB334867/SB408124 30 mg/kg, alprazolam 3 mg/kg, experiments 4 and 6): attenuated
all lactate induced panic-like responses (SI, Activity, HR, MAP) ([2]; panic-prone rats, i.p. 30 min prior to lactate, SB334867 30 mg/kg, alprazolam 3 mg/kg): attenuated
Mean number of c-Fos immunoreactive cells, Amygdala (−2.56 mm bregma) BLA (c-Fos): 6 ± 2
Mean number of c-Fos immunoreactive cells, Amygdala (−2.56 mm bregma) LA (c-Fos): 6 ± 1
Mean number of c-Fos immunoreactive cells, Amygdala (−2.56 mm bregma) MeA (c-Fos): 91 ± 21
Mean number of c-Fos immunoreactive cells, DRN (−7.80 mm bregma) (c-Fos): 1 ± 0
Mean number of c-Fos immunoreactive cells, ILC (+2.60 mm bregma) (c-Fos): 14 ± 8
Mean number of c-Fos immunoreactive cells, IPBN (−9.30 mm bregma) (c-Fos): 10 ± 3
Mean number of c-Fos immunoreactive cells, LC (−10.04 mm bregma) (c-Fos): 45 ± 9
Mean number of c-Fos immunoreactive cells, LSI (+0.20 mm bregma) (c-Fos): 10 ± 4
Mean number of c-Fos immunoreactive cells, PRL (+2.60 mm bregma) (c-Fos): 2 ± 0
Mean number of c-Fos immunoreactive cells, PeF (−3.14 mm bregma) (c-Fos): 65 ± 20
Mean number of c-Fos immunoreactive cells, mPBN (−9.30 mm bregma) (c-Fos): 2 ± 1

“Also recorded” adds a separate entry of the source.
